# Experimental data from ChEMBL document CHEMBL1268987, “Identification of 2-oxo-N-(phenylmethyl)-4-imidazolidinecarboxamide antagonists of the P2X(7) receptor” (Bioorg Med Chem Lett, 2010).
# Chains of the proteins cited; added tags and fusions are not shown. Lines headed by an entry give the natural chain unless they say otherwise; changes in a name come on top.
# UniProt Q99572: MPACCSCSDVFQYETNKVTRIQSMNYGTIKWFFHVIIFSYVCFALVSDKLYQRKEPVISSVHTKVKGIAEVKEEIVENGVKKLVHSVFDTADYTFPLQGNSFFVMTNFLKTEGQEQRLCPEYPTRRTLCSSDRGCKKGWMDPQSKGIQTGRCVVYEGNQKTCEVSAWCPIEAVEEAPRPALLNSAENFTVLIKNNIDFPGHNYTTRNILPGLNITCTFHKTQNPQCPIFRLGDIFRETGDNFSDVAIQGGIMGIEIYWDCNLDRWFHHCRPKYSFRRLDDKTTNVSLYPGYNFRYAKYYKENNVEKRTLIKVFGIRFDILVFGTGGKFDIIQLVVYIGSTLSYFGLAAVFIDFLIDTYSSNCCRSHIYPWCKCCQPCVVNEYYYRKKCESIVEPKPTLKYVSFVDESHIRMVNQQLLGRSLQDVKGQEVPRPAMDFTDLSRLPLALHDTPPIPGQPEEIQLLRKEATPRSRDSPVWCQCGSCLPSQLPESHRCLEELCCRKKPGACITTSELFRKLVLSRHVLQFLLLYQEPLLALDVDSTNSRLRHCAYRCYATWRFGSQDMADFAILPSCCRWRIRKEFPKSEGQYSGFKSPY
# Molecular target: P2X purinoceptor 7 (Homo sapiens, UniProt Q99572)
# Test: Antagonist activity at human recombinant P2X7 receptor expressed in HEK293 cells by ethidium accumulation assay
# Assay type: functional, cell-based
# Summary of the method: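 Ethidium accumulation read-out: ATP activation of the receptor opens a large pore, and uptake of ethidium bromide dye into the cells is measured by fluorescence. Values are pIC50, reported as the average of n >3.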
compound,measurement,value
CN1C[C@@H](C(=O)NCc2cccc(C(F)(F)F)c2Cl)N(C)C1=O,IC50,631 pM
